## AlphaSeq binding of Ab-14 light chain variants to a spike HR2 peptide

Data: MIT Lincoln Laboratory AlphaSeq set, Li et al. 2023, doi:10.1038/s41467-023-39022-2, as distributed in FLAb.

Target: peptide PDVDLGDISGINAS, taken from heptad repeat 2 (HR2) of SARS-CoV-2 spike.

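Phage display of a naive human antibody library on the peptide gave the parent. These sequences belong to a second round, designed from the earlier measurements on random variants of the parent. Group labels follow the data file (Ctrl: baseline library sampled from a position-specific scoring matrix, with some repeated check sequences; GP: Gaussian process model; GPLM: also part of the Gaussian process libraries; HC: hill climbing; Gen: genetic algorithm; Gibbs: Gibbs sampling; a sequence that several methods proposed may carry one label only). In AlphaSeq, yeast of one mating type display the scFv and yeast of the other type display the target. The frequency of each diploid, read from paired DNA barcodes, reflects how well the two displayed proteins bind. Scores were corrected for input abundance and mapped to Kd with protein pairs of known affinity run in the same pool. The assay was run in six technical replicates.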

Parent scFv Ab-14: VH joined to VL by a (GGGGS)3 linker. Changes lie in the light chain CDRs alone.
VH: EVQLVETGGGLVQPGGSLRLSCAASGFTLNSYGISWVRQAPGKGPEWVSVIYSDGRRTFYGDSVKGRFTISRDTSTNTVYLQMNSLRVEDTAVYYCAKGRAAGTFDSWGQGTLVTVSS
VL: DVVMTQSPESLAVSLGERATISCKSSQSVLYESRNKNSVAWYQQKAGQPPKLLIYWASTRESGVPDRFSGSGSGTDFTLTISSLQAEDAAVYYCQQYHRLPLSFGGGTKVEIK

The parent's light chain CDRs are KSSQSVLYESRNKNSVA, WASTRES, QQYHRLPLS; each variant's own CDRs replace them letter for letter. Variants here have at most six changes. Numbers give log10(Kd / nM), so 0 is 1 nM and 3 is 1 µM. Smaller is tighter. A mean of the replicates is given; it leaves out those without a signal. The parent sequence was in this pool as ten entries: three were never detected, three once, and four in most replicates, with averages from 0.34 to 2.37. In the paper, a design with two or fewer of six values counts as a poor binder. Nonspecific signal, from three strains lacking the peptide, appeared in 4% of pairings of all light chain designs, centred on 2.64 (5% of these signals below 1.59); values are not corrected for it. The control count says in how many pairings with the empty strains this scFv gave a signal. Values of this round are not directly comparable with the first-round values of the same sequences.

The variant KLSMSDLYESRNKNSVA / GASTRES / QQYHRLPLS [GP_Gen] showed -0.21 (6 of 6 replicates; controls 0 of 18). The variant KISQVYLYESRNKNSVA / DASTRES / QQYHRLPLS [GP_HC] gave -0.18 (6 of 6 replicates; controls 0 of 18). The variant KSSVNVLAESRNKNSVA / WASQRES / QQYHRLPLS [Ctrl] showed 2.12 (6 of 6 replicates; controls 0 of 18). For KLSQSKGYESRNPNSVA / NASTREL / QQYHRLPLS [GP_Gibbs], the assay gave -0.08 (6 of 6 replicates; controls 1 of 18). For KLPQSVLYESRNKNSVA / SASTRLS / QQYHRLPLS [GP_Gen], the assay gave -0.09 (6 of 6 replicates; controls 0 of 18). The variant KSSQSMTYESRAKNSVA / WASTRES / QQYHRLPLS [Ctrl] gave 2.03 (4 of 6 replicates; controls 0 of 18). For VSSQSVLYESRNKNSVA / WASTREA / QQYHRLPLS [Ctrl], the assay gave 1.33 (1 of 6 replicates; controls 1 of 18). For KFSQSVLYESRNKNSVA / HASTRSS / QQYMRLPFS [Ctrl], the assay gave 0.24 (6 of 6 replicates; controls 0 of 18). With KVSQSVLYEQRNKNSVA / EASTRES / QQYHRLPLS [GP_Gen] the result was 0.04 (6 of 6 replicates; controls 2 of 18).

The variant KCEQWVDYESRNKNSVA / QASTREQ / QQYHRLPLS [GP_Gibbs] gave -0.24 (6 of 6 replicates; controls 0 of 18). The variant FLSQSDLYESRNKNSVA / EASTRES / QQYHRLPLS [GP_Gen] showed 0.16 (6 of 6 replicates; controls 1 of 18). For KLSQSTLYESRNKNSVA / HASTRES / QQYHRLPLS [GP_Gen], the assay gave 0.00 (6 of 6 replicates; controls 2 of 18). The variant KLSQSWGYESRNKNSVA / HASQRES / QQYHRLPLS [GP_Gen] showed 0.40 (6 of 6 replicates; controls 0 of 18). For KLYQSTLYESRNKNSVA / WASTRLS / QQYHRLPLS [GP_HC], the assay gave 1.68 (5 of 6 replicates; controls 1 of 18). The variant KLRQSTLYESRNPNSVA / WASTRCS / QQYHRLPLS [GP_HC] gave 0.56 (6 of 6 replicates; controls 4 of 18). For IISQSVLMESRNKNSVA / DASTRES / QQYHRLPLS [GP_HC], the assay gave 0.03 (6 of 6 replicates; controls 1 of 18). For KSGQGVLYDSRNKNNVA / EASERES / QQYHRLPLS [Ctrl], the assay gave -0.26 (6 of 6 replicates; controls 0 of 18). The variant KLSQSELYESRMKNNVA / NASTRES / QQYHRLPLS [GP_Gen] showed 0.45 (6 of 6 replicates; controls 1 of 18).

The variant KQSQEVLFESRNKNSVA / DASTREM / QQYHRLPLS [GP_HC] showed -0.25 (6 of 6 replicates; controls 0 of 18). With FLSQSVLYESRMKNSVA / NASTRES / QQYHRLPLS [GP_Gen] the result was -0.27 (6 of 6 replicates; controls 2 of 18). With KSSQSVLEESRNKNSVA / WASTRES / QQYHNLPLS [Ctrl] the result was 2.15 (6 of 6 replicates; controls 0 of 18). The variant KLQQSQLYESRNKNSVA / NASTRES / QQYHRLPLS [GP_Gen] gave -0.03 (6 of 6 replicates; controls 0 of 18). The variant KSSQSVLPESRNKNSVA / WASTRES / QQYHRLVLS [Ctrl] showed 2.00 (1 of 6 replicates; controls 0 of 18). The variant HSSPSVLYESRNKNSVA / AASTRES / QQYHRLPLS [GP_HC] gave 0.52 (6 of 6 replicates; controls 2 of 18). With KSSQSWLYESRNKNSVA / GGNTRES / QQYHRLPLS [GP_HC] the result was -0.09 (6 of 6 replicates; controls 0 of 18). For KSSQSVFYESRNKNSVA / SASTRES / QQYHRLPLS [Ctrl], the assay gave 0.87 (6 of 6 replicates; controls 0 of 18). The variant YISQSVLYESRNKNSVA / NASTRES / QQYHRLPLS [GP_Gen] showed -0.13 (6 of 6 replicates; controls 0 of 18).

The variant KVSGSELYESRNKNSVA / NASTRES / QQYHRLPLS [GP_Gen] showed -0.21 (6 of 6 replicates; controls 0 of 18). For KSGEGVLYESRNKNSVA / GASTRES / QQYHRLPLS [GPLM_HC], the assay gave -0.23 (6 of 6 replicates; controls 0 of 18). For KVSGSYLLESRNKNSVA / EASTRES / QQYHRLPLS [GP_HC], the assay gave -0.43 (6 of 6 replicates; controls 1 of 18). For KSSQSVLYESRNKNPVA / SASTRES / QQYHRLPLS [Ctrl], the assay gave 0.16 (6 of 6 replicates; controls 1 of 18). The variant KSSQSVLYESRNKNNVA / WASMHNS / QQYMRLPLS [Ctrl] showed 1.25 (1 of 6 replicates; controls 1 of 18). The variant KSSQSWLYESRNKNSVA / GASTREI / QQYHRLPLS [GP_HC] showed -0.51 (6 of 6 replicates; controls 0 of 18). With KSSQSGLYESRNKNSVA / WASTREQ / QSYHRLPLS [Ctrl] the result was 2.51 (3 of 6 replicates; controls 1 of 18). The variant KQSESVLYESRNSNSVA / WASTRES / QQYHRLPLS [Ctrl] showed 1.34 (6 of 6 replicates; controls 1 of 18). For KMSQSVLMEERNKNSVA / DASLRES / QQYHRLPLS [GP_HC], the assay gave 0.18 (6 of 6 replicates; controls 2 of 18).

The variant KLSQSVLYESRQKNSVA / QASTRES / QQYHRLPLS [GP_Gen] gave 0.17 (6 of 6 replicates; controls 1 of 18). The variant KLSQSVLYESRQKNSVA / NASQRMS / QQYHRLPLS [GP_Gen] showed 0.06 (6 of 6 replicates; controls 0 of 18). For KFSQSVLYESRNKNSVA / WASTRES / QQYMSLPLS [Ctrl], the assay gave 0.59 (6 of 6 replicates; controls 0 of 18). The variant KLSQSWLYESRNKNSVA / EASQRES / QQYHRLPLS [GP_Gen] showed 0.22 (6 of 6 replicates; controls 0 of 18). The variant KLSQQHLYESRNKNSVA / NASTRES / QQYHRLPLS [GP_Gen] showed 0.22 (6 of 6 replicates; controls 0 of 18). The variant KSSQSVLNESANKNSVA / WANTRES / QQYHWLPFS [Ctrl] showed 3.27 (5 of 6 replicates; controls 2 of 18). For KLSQSQLYESRNKNSVA / NASTRLS / QQYHRLPLS [GP_Gen], the assay gave 0.10 (6 of 6 replicates; controls 0 of 18). With KSSQSVVYESRNKNSVA / EASTREA / QQYHRLPAS [Ctrl] the result was 1.04 (6 of 6 replicates; controls 2 of 18). For KSSISHLEESRNKNSVA / EASTRES / QQYHRLPLS [GP_HC], the assay gave -0.17 (6 of 6 replicates; controls 0 of 18).

For reference, 5 entries of the list once more:

With KLSQSWGYESRNKNSVA / HASQRES / QQYHRLPLS [GP_Gen] the result was 0.40 (6 of 6 replicates; controls 0 of 18).
With VSSQSVLYESRNKNSVA / WASTREA / QQYHRLPLS [Ctrl] the result was 1.33 (1 of 6 replicates; controls 1 of 18).
With KSSQSGLYESRNKNSVA / WASTREQ / QSYHRLPLS [Ctrl] the result was 2.51 (3 of 6 replicates; controls 1 of 18).
With KLSQQHLYESRNKNSVA / NASTRES / QQYHRLPLS [GP_Gen] the result was 0.22 (6 of 6 replicates; controls 0 of 18).
With KSGQGVLYDSRNKNNVA / EASERES / QQYHRLPLS [Ctrl] the result was -0.26 (6 of 6 replicates; controls 0 of 18).